Reference: PMC7497161

Chains of the proteins cited; added tags and fusions are not shown.
UniProt P42575, whole entry, stated change not applied: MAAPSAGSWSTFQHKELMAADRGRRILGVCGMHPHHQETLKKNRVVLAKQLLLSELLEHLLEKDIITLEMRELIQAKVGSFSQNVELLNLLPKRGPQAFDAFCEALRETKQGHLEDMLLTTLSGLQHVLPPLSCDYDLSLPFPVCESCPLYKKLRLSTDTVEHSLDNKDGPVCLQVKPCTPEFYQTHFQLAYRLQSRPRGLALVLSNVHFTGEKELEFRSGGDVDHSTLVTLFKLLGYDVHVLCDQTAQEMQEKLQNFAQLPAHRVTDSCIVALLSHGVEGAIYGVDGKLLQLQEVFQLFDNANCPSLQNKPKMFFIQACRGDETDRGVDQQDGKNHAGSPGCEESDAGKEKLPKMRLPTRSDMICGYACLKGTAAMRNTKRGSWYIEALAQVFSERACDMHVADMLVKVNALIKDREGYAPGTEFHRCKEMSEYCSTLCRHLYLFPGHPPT
UniProt P42575, whole entry H226A/D323T: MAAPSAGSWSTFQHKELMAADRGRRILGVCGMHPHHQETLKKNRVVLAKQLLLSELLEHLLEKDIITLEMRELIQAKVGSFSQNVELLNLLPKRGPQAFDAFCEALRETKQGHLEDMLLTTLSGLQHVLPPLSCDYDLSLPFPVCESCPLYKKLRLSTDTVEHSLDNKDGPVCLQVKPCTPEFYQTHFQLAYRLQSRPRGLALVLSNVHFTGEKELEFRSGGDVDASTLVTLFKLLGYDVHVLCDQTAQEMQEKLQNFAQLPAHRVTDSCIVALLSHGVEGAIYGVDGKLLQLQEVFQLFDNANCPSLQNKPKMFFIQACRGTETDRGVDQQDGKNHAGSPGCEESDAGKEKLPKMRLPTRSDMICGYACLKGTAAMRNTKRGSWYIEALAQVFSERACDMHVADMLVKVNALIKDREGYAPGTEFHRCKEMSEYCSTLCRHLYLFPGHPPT

Tests used:
[1] = biological target: circularly permuted Caspase-2 (unmutated) (human) (UniProt P42575)
[2] = biological target: circularly permuted Caspase-2 double mutant Asp323Thr/His226Ala (human) (UniProt P42575)

| Molecule | K M (Michaelis-Menten kinetics, FRET peptide-based cleavage assay, 1 μM enzyme) [1] [µM] | K M (Michaelis-Menten kinetics, FRET peptide-based cleavage assay, 1 μM enzyme) [2] [µM] |
| --- | --- | --- |
| Abz-VDVAD-GA-Dap(Dnp) (peptide) | 112 | – |
| Abz-VDVAD-VA-Dap(Dnp) (peptide) | 64 | – |
| Abz-VDVAD-LA-Dap(Dnp) (peptide) | 287 | – |
| Abz-VDVAD-AA-Dap(Dnp) (peptide) | 89 | – |
| Abz-VDVAD-PA-Dap(Dnp) (peptide) | 305 | – |
| Abz-VDVAD-TA-Dap(Dnp) (peptide) | 75 | – |
| Abz-VDVAD-IA-Dap(Dnp) (peptide) | 71 | – |
| VDVADIA (2-aminobenzoyl (Abz) on the N-terminus; C-terminal diamino-propionic acid (Dap) carrying 2,4-dinitrophenyl (Dnp)) [Abz-VDVAD-IA-Dap(Dnp)] | – | 67 |
